Values quoted from earlier work as cited in patent publication US20130023485A1, “PARENTERAL FORMULATIONS OF PEPTIDES FOR THE TREATMENT OF SYSTEMATIC LUPUS ERYTHEMATOSUS” (Teva Pharmaceutical Industries, Ltd., priority 2003, published 2013).

Details: administered parenterally; relative to beta-cyclodextrin; cited from earlier work

Substance: hepta-substituted sulfobutylether (β-cyclodextrin [CAPTISOL®]
- nephrotoxicity: does not exhibit the nephrotoxicity
